Measurements taken from PubChem BioAssay (NCATS).
The list shows a part of the results, in another mix than the full data. Records with an inconclusive call do not appear. Active and inactive are the calls of the source. Unless noted, calls come from the whole dose curve; as a rule, active = well fitted curve in the direction sought with a large enough effect; inconclusive = small, poorly fitted or top-dose-only effect, or another doubt; inactive = no such curve, though single readings can be large; an effect the other way counts as inactive or inconclusive.

By UniProt entry, the sequences of proteins in these tests, tags left out. Where a name states a change or a piece, a line headed by the entry shows the natural chain unless it says otherwise.
UniProt O94782: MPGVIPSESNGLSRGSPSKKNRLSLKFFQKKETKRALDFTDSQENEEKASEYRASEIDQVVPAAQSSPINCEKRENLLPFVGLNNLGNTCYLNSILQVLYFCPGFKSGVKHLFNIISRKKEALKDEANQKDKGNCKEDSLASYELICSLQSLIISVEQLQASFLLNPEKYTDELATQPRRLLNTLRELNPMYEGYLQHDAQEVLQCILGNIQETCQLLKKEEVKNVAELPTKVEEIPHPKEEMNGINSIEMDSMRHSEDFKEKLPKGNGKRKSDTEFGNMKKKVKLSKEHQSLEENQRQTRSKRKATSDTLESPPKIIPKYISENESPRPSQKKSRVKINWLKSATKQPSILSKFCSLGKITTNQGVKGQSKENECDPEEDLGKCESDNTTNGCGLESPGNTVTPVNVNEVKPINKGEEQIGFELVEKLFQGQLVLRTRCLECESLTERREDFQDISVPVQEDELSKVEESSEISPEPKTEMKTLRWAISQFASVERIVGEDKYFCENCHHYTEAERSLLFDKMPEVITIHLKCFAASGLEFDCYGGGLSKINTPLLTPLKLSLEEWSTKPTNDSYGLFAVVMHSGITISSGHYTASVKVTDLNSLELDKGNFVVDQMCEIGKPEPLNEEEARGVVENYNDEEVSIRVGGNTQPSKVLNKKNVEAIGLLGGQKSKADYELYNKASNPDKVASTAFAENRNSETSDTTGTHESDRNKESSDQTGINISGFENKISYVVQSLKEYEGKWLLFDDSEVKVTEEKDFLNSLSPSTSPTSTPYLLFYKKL
UniProt P10275: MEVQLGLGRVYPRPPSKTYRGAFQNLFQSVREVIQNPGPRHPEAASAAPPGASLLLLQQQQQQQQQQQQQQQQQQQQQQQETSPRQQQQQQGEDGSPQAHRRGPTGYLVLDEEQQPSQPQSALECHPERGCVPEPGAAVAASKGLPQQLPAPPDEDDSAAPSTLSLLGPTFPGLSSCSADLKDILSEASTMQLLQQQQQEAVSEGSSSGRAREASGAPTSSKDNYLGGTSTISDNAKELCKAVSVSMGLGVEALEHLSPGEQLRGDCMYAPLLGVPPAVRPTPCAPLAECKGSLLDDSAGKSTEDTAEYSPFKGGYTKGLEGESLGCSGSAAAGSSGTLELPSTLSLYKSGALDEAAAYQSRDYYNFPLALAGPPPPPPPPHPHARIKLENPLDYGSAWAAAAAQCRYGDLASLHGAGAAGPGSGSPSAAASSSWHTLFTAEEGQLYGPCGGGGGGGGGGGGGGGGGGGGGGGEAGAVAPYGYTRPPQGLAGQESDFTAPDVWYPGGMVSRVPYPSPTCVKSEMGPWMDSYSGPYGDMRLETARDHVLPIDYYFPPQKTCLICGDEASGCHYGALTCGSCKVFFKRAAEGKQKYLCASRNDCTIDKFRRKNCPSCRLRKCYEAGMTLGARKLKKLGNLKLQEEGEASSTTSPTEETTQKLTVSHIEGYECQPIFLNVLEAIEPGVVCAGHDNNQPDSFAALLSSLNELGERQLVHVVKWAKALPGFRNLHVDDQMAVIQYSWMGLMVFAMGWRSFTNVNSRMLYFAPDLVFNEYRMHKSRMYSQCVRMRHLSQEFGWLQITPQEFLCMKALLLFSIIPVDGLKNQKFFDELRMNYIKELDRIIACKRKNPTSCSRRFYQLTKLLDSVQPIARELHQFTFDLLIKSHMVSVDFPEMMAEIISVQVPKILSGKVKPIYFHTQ

Key:
[1] = Cell Viability - LYMP1-003 - Assay at 24 hr (AID 963); settings: LYMP1-003 lymphoblastoid cell viability; at 92.2 µM (top of the series);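 note: plate controls were DMSO only for no effect and tetraoctylammonium bromide positive control for full effect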
Outline: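 Acute toxicity in LYMP1-003 lymphoblastoid cells: 24 hr compound treatment at 37 C, ATP measured with CellTiter-Glo after 30 min at room temperature. AC50 derived by fitting the Hill equation to qHTS titrations.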

[2] = Cell Viability - LYMP1-003 - Assay at 40 hr (AID 964); settings: LYMP1-003 lymphoblastoid viability; at 92.2 µM (top of the series); note: % is set by controls: 0 for no effect and ±100 for the full control effect; nearly all actives have a fitted effect of over 60% in size
Outline: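 This qHTS cytotoxicity screen treats human lymphoblastoid cells (LYMP1-003) with compounds for 40 hr and quantifies cellular ATP via luciferase luminescence.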

[3] = Cell Viability - LYMP2-003 (AID 965); settings: LYMP2-003 lymphoblastoid cell viability; at 92.2 µM (top of the series);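 note: cells exposed to compounds for 24 h before reading; 0% = DMSO only and full effect = 92 µM tetraoctylammonium bromide; nearly all actives have a fitted effect of over 50% in size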
Outline: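 CellTiter-Glo luminescence quantified ATP loss after 24 h compound treatment of LYMP2-003 lymphoblastoid cells at 37 C. Titration series were fitted with the standard Hill equation to give AC50.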

[4] = Cell Viability - LYMP2-004 (AID 966); settings: LYMP2-004 lymphoblastoid cell viability, qHTS; at 92.2 µM (top of the series);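 note: plate controls were DMSO only for no effect and tetraoctylammonium bromide control for full effect; nearly all actives have a fitted effect of over 65% in size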
Outline: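 Acute toxicity is scored as a concentration-dependent drop in intracellular ATP, quantified by luciferase luminescence, in human lymphoblastoid cells exposed to compound for 24 hr. AC50 derives from Hill-equation modelling.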

[5] = Cell Viability - LYMP2-009 (AID 968); settings: LYMP2-009 lymphoblastoid cell viability; at 92.2 µM (top of the series);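 note: 0% = DMSO alone and the full-kill end = tetraoctylammonium bromide at 92 µM; nearly all actives have a fitted effect of over 55% in size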
[6] = Cell Viability - LYMP2-011 (AID 969); settings: LYMP2-011 lymphoblastoid cells viability; at 92.2 µM (top of the series);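 note: 0% = DMSO only and full inhibition = 92 µM tetraoctylammonium bromide; nearly all actives have a fitted effect of over 60% in size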
Outline: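 Acute toxicity is scored as a concentration-dependent drop in intracellular ATP of a human lymphoblastoid line after 24 hr treatment. Values are AC50s modeled with the Hill equation.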

[7] = Cell Viability - LYMP2-013 (AID 970); settings: LYMP2-013 lymphoblastoid cells viability; at 92.2 µM (top of the series);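 note: 0% = DMSO only and full inhibition = tetraoctylammonium bromide control; nearly all actives have a fitted effect of over 55% in size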
[8] = Cell Viability - LYMP2-015 (AID 971); settings: LYMP2-015 lymphoblastoid cell viability; at 92.2 µM (top of the series);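 note: 0% = DMSO only and full effect = 92 µM tetraoctylammonium bromide; nearly all actives have a fitted effect of over 55% in size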
[9] = Cell Viability - LYMP2-017 (AID 972); settings: LYMP2-017 lymphoblastoid cell viability; at 92.2 µM (top of the series); note: % is set by controls: 0 for no effect and ±100 for the full control effect; nearly all actives have a fitted effect of over 55% in size
[10] = Cell Viability - LYMP2-019 (AID 973); settings: LYMP2-019 lymphoblastoid cell line viability; at 92.2 µM (top of the series)
[11] = Cell Viability - LYMP2-021 (AID 974); settings: LYMP2-021 lymphoblastoid cells viability; at 92.2 µM (top of the series)
[12] = Cell Viability - LYMP2-023 (AID 975); settings: LYMP2-023 lymphoblastoid cell viability; at 92.2 µM (top of the series)
Outline: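 Concentration-dependent drop in intracellular ATP measures acute cytotoxicity in a human lymphoblastoid line treated for 24 hours in complete culture medium. AC50 values are taken from Hill-equation fits of qHTS data.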

[13] = Cell Viability - LYMP2-025 (AID 976); settings: LYMP2-025 lymphoblastoid cell viability; at 92.2 µM (top of the series);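 note: plate controls were DMSO only for no effect and tetraoctylammonium bromide control for full effect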
Outline: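 In qHTS format, LYMP2-025 lymphoblastoid cells in complete culture medium received compound for 24 hr; ATP-based CellTiter-Glo signal gave viability, with AC50 derived by Hill equation.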

[14] = Cell Viability - LYMP2-002 (AID 977); settings: LYMP2-002 lymphoblastoid cell viability, qHTS; at 92.2 µM (top of the series);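 note: plate controls were DMSO only for no effect and 92 µM tetraoctylammonium bromide for full effect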
Outline: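 Cytotoxicity is scored as concentration-dependent loss of cellular ATP in a human lymphoblastoid line after 24 hr compound treatment at 37 C. AC50 is obtained by modelling concentration-response data with the Hill equation.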

[15] = Cell Viability - LYMP2-006 (AID 978); settings: LYMP2-006 lymphoblastoid cell viability, qHTS; at 92.2 µM (top of the series); note: % is set by controls: 0 for no effect and ±100 for the full control effect; nearly all actives have a fitted effect of over 60% in size
Outline: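 Potency values are Hill-fit AC50s for decreases in intracellular ATP (CellTiter-Glo luminescence). LYMP2-006 lymphoblastoid cells, 2500 per well, were exposed to compound in complete culture medium for 24 hr at 37 C.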

[16] = Cell Viability - LYMP2-007 (AID 979); settings: LYMP2-007 lymphoblastoid cell viability; at 92.2 µM (top of the series);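 note: cells exposed to compound for 24 h before reading; 0% = DMSO only and the negative end = 92 µM tetraoctylammonium bromide; nearly all actives have a fitted effect of over 60% in size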
[17] = Cell Viability - LYMP2-008 (AID 980); settings: LYMP2-008 lymphoblastoid cell viability, qHTS; at 92.2 µM (top of the series)
Outline: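 Acute cytotoxicity is scored as concentration-dependent loss of cellular ATP in a human lymphoblastoid line after 24 hr treatment at 37 C. ATP is quantified by luciferase luminescence.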

[18] = Cell Viability - LYMP2-010 (AID 981); settings: LYMP2-010 lymphoblastoid cell viability, qHTS; at 92.2 µM (top of the series)
[19] = Cell Viability - LYMP2-012 (AID 982); settings: LYMP2-012 lymphoblastoid cell viability qHTS; at 92.2 µM (top of the series)
[20] = Cell Viability - LYMP2-014 (AID 983); settings: LYMP2-014 lymphoblastoid cells, viability qHTS; at 92.2 µM (top of the series);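 note: plate controls were DMSO only for no effect and 92 µM tetraoctylammonium bromide for full effect; nearly all actives have a fitted effect of over 50% in size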
Outline: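 Decrease in intracellular ATP after 24 hr treatment at 37 C, measured by luciferase luminescence, indicated cytotoxicity. Concentration-response data were fitted with the standard Hill equation to give AC50.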

[21] = Cell Viability - LYMP2-016 (AID 984); settings: LYMP2-016 lymphoblastoid cell viability, qHTS; at 92.2 µM (top of the series)
Outline: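 Cytotoxicity was scored by luminescent ATP content (CellTiter-Glo) after 24 h compound exposure at 37 C of a human lymphoblastoid line at 2500 cells/well. Concentration-response data were fitted to the Hill equation for AC50.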

[22] = Cell Viability - LYMP2-018 (AID 985); settings: LYMP2-018 lymphoblastoid cells, viability (qHTS); at 92.2 µM (top of the series);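 note: compound exposure lasted 24 hr at 37 °C; plate controls were DMSO only for no effect and tetraoctylammonium bromide at 92 µM for full effect; nearly all actives have a fitted effect of over 50% in size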
Outline: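 Acute cytotoxicity is scored as a concentration-dependent drop in intracellular ATP after 24 hr exposure of the lymphoblastoid line in complete culture medium, measured by luciferase luminescence. Potency is expressed as AC50 from Hill modelling.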

[23] = Cell Viability - LYMP2-020 (AID 986); settings: LYMP2-020 lymphoma cell viability, qHTS; at 92.2 µM (top of the series)
[24] = Cell Viability - LYMP2-022 (AID 987); settings: LYMP2-022 lymphoblastoid cell viability; at 92.2 µM (top of the series)
[25] = Cell Viability - LYMP2-024 (AID 988); settings: LYMP2-024 lymphoblastoid cell viability; at 92.2 µM (top of the series)
[26] = Cell Viability - LYMP2-026 (AID 989); settings: LYMP2-026 lymphoblastoid cell viability, qHTS; at 92.2 µM (top of the series); note: % is set by controls: 0 for no effect and ±100 for the full control effect; nearly all actives have a fitted effect of over 50% in size
Outline: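 Concentration-dependent loss of intracellular ATP in human lymphoblastoid cells after 24 hr at 37 C, quantified by luciferase luminescence. AC50 derived from standard Hill equation.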

[27] = Cell Viability - LYMP1-002 - Assay at 24 hr (AID 993); settings: LYMP1-002 lymphoblastoid cells viability; at 92.2 µM (top of the series); note: % is set by controls: 0 for no effect and ±100 for the full control effect
Outline: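 qHTS, LYMP1-002 lymphoblastoid, 24 h cpd, 37 C, CellTiter-Glo ATP luminescence; AC50 via Hill eq.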

[28] = Cell Viability - LYMP1-002 - Assay at 40 hr (AID 994); settings: LYMP1-002 lymphoblastoid cell viability; at 92.2 µM (top of the series)
Outline: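 Viability in the human lymphoblastoid line was measured as intracellular ATP via CellTiter-Glo after 40 hr compound exposure. Tetraoctylammonium bromide served as positive control.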

[29] = qHTS Assay for Identification of Small Molecule Inducers of Hypoxia Response (AID 2120; active = well fitted curve in the direction sought with a large enough effect in the signal ratio, with a control signal flat, not every such curve was filed as active; the % refers to the signal ratio; note: 0% is about no effect); settings: hypoxia response reporter cells, beta-lactamase ratio readout; at 104 µM (top of the series)
Outline: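 Induction of beta-lactamase reporter activity was measured in CellSensor HRE-bla ME-180 cells after 17 h compound treatment at 37 degrees C, using CCF4 substrate and the 460nm/530nm emission ratio to derive AC50 values.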

[30] = target: Ubiquitin carboxyl-terminal hydrolase 1 (Homo sapiens) (UniProt O94782); assay: Inhibitors of USP1/UAF1: Pilot qHTS (AID 504865); settings: purified USP1/UAF1, Ub-rhodamine cleavage fluorescence;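 note: rhodamine fluorescence freed from ubiquitin-rhodamine substrate followed over time; top concentration of the series differs between compounds; % is set by controls: 0 for no effect and ±100 for the full control effect; nearly all actives have a fitted effect of over 35% in size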
[31] = target: Androgen receptor (Homo sapiens) (UniProt P10275); assay: qHTS assay for small molecule antagonists of androgen receptor signaling (AID 588516; active = well fitted curve in the direction sought with a large enough effect in the signal ratio, with a control signal flat, not every such curve was filed as active; the % refers to the signal ratio; note: % is set by controls: 0 for no effect and ±100 for the full control effect); settings: AR-UAS-bla HEK293, beta-lactamase ratio, antagonist mode, 16 h; at 76.8 µM (top of the series)
[32] = target: Bile acid receptor (Homo sapiens) (UniProt Q96RI1); assay: qHTS assay for small molecule antagonists of farnesoid X receptor signaling (AID 588526; calls by dose curve; note: % is set by controls: 0 for no effect and ±100 for the full control effect); settings: HEK293T FXR-UAS-bla, beta-lactamase ratio, antagonist mode; at 76.7 µM (top of the series)

NC(=O)Nc1ccc([As](=O)(O)O)cc1
inactive: viability change, negative = cytotoxic [1] 0.46% | activity change, negative = cytotoxic [2] -5.81% | activity change, negative = cytotoxicity [3] 11.2% | activity change, negative = cytotoxicity [4] -12.7% | activity change, negative = viability loss [5] -7.26% | viability change, negative = cytotoxic [6] 1.85% | activity change, negative = cytotoxic [7] -4.04% | activity change, negative = lower viability [8] -4.63% | activity change, negative = cytotoxicity [9] -2.42% | activity change, negative = cytotoxicity [10] -8.27% | activity change, negative = cytotoxicity [11] 2.52% | activity change, negative = cytotoxicity [12] -1.92% | activity change, negative = cytotoxicity [13] -6.99% | activity change, negative = cytotoxic [14] 0.116% | activity change, negative = cytotoxicity [15] 3.89% | activity change, negative = cytotoxicity [16] -9.23% | activity change, negative = cytotoxicity [17] -5.74% | activity, negative = cytotoxicity [18] -2.31% | activity change, negative = cytotoxicity [19] -1.24% | activity change, negative = cytotoxicity [20] 1.23% | activity change, negative = cytotoxicity [21] 1.59% | activity change, negative = cytotoxicity [22] -1.89% | activity change, negative = viability loss [23] -2.61% | viability change, negative = cytotoxic [24] -0.901% | activity change, negative = cytotoxicity [25] -17% | activity change, negative = cytotoxic [26] -7.77% | activity change, negative = cytotoxicity [27] 7.17% | viability change, negative = cytotoxic [28] 1.36% | activation [29] -0.297% | activity change, negative = inhibition ([30]; at 54.9 µM (top of the series)) 7.07% | activity change, negative = inhibition ([30]; at 114 µM (top of the series)) -0.715% | activity change, negative = inhibition [31] 9.65% | activity change, negative = inhibition [32] -2.5%
